Reference: ChEMBL document CHEMBL3758105 (J Med Chem, 2016)

Sequences of proteins named here, by UniProt entry; tags and fusion partners are left off. A change or cut given only in a name is not applied to a line headed by its entry.
UniProt P09238: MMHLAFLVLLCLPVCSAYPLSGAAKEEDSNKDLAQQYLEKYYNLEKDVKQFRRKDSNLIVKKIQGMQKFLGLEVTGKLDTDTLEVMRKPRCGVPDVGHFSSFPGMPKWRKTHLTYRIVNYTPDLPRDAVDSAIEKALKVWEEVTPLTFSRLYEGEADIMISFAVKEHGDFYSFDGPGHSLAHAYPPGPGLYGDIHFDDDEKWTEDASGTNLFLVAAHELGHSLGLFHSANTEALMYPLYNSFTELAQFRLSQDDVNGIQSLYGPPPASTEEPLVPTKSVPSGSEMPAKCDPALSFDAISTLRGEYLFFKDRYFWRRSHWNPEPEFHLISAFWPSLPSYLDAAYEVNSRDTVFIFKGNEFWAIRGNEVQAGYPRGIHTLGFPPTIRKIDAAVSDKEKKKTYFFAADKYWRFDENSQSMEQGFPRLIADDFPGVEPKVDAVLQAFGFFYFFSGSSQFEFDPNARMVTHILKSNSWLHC
UniProt P78536: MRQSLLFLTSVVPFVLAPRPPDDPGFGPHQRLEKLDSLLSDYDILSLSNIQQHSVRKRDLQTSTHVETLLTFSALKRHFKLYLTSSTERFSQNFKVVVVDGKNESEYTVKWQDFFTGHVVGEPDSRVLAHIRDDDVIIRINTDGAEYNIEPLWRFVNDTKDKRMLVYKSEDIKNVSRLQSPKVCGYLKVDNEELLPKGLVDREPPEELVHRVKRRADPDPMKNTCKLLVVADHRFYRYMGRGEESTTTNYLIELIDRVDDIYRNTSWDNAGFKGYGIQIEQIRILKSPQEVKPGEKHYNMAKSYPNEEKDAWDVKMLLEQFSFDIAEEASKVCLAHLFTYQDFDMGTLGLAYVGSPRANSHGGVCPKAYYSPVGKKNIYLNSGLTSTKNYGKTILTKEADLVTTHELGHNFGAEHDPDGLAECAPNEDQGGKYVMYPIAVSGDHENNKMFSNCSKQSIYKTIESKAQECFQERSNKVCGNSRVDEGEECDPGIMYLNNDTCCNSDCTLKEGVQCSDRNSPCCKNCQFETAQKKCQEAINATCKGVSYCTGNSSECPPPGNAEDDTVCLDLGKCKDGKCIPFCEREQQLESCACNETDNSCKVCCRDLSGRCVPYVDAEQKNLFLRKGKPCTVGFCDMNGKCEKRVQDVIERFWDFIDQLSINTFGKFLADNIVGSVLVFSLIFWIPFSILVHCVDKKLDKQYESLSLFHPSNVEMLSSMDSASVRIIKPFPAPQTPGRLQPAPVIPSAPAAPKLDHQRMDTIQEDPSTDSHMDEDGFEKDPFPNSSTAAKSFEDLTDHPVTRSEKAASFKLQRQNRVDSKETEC

How the values were obtained:
Stromelysin-2 = Stromelysin-2 (Homo sapiens, UniProt P09238); assay: Inhibition of recombinant human MMP10 catalytic domain using MCA-Arg-Pro-Leu-Gly-Leu-Dpa-Ala-Arg-Glu-Arg-NH2 as substrate preincubated for 60 mins followed by substrate addition by fluorescence assay
[1] = molecular target: Disintegrin and metalloproteinase domain-containing protein 17 (Homo sapiens, UniProt P78536); assay: Inhibition of TACE (unknown origin) using Mca-Pro-Leu-Ala-Gln-Ala-Val-Dpa-Arg-Ser-Ser-Ser-Arg-NH2 as substrate
[2] = molecular target: T1, A disintegrin and metalloproteinase with thrombospondin motifs 5 (Homo sapiens, UniProt Q9UNA0); assay: Inhibition of full length recombinant ADAMTS5 (unknown origin) expressed in insect Sf9 cells after 6 hrs by alkaline phosphatase-based assay
T1 sequence (Q9UNA0 whole entry): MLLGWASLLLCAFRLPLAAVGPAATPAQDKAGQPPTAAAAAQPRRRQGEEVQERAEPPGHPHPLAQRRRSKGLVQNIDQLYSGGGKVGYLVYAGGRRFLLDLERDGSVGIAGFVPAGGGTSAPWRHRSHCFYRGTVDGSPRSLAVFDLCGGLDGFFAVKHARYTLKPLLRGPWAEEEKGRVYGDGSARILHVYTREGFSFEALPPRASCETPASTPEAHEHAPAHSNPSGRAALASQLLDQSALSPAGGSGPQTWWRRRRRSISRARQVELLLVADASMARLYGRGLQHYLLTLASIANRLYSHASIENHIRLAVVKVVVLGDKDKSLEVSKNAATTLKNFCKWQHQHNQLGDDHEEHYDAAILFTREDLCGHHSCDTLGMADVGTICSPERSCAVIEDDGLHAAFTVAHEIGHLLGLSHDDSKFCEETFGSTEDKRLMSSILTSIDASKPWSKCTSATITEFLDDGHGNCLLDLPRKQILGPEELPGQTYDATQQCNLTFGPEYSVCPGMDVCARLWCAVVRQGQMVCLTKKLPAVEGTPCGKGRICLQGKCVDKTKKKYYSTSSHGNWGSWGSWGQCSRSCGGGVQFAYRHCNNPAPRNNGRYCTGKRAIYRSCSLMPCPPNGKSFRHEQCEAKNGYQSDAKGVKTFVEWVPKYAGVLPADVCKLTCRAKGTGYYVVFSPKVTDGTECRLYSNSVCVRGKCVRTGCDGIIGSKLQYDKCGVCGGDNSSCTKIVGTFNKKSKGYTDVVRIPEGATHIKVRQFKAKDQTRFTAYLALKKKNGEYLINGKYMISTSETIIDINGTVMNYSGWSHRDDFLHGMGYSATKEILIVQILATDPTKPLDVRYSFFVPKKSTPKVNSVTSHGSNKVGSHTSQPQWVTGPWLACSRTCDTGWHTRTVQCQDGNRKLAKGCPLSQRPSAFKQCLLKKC

IC50 (Stromelysin-2): 10 µM
IC50 [1]: 10 µM
IC50 [2]: 10 µM
Structure (SMILES): CNC(=O)[C@@H](NC(=O)[C@H](CC(C)C)[C@H](O)C(=O)NO)C(C)(C)C
